# Data: patent US20260207704A1, “STAPLED PEPTIDES AND METHODS THEREOF” (priority 2022, published 2026)
# Sequences of proteins named here, by UniProt entry; tags and fusion partners are left off.
# UniProt P35222, whole entry: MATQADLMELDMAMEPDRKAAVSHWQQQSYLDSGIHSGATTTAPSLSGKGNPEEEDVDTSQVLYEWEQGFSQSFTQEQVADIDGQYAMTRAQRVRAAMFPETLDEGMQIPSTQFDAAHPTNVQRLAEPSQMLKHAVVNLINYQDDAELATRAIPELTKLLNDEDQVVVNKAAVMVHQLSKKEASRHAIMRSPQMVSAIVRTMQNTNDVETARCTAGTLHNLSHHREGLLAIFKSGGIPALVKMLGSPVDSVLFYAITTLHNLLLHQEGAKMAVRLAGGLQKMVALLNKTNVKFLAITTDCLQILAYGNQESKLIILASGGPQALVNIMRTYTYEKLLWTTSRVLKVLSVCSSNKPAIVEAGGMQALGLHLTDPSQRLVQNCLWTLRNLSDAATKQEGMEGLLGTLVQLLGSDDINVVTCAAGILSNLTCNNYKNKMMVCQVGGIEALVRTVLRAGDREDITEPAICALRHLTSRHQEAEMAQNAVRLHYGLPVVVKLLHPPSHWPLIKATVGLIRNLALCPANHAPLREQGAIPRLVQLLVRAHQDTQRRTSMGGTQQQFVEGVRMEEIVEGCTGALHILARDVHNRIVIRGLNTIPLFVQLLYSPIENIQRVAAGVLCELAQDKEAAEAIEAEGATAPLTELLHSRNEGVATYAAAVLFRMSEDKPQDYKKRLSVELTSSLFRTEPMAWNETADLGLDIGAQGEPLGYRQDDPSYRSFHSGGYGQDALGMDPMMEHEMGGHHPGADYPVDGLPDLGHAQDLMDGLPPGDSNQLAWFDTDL
# pIC50: −log10 of the molar value.
# How the values were obtained:
# [1] = biological target: T1, beta-catenin/TCF4 (Homo sapiens, UniProt P35222); test: Nano-BRET target engagement assay (HEK293 cells); assay type: cell-based
# T1 construct: expressed in transfected cells; host or cells: HEK293 cells
# [2] = biological target: beta-catenin (Homo sapiens, UniProt P35222); test: fluorescence polarization binding to beta-catenin; conditions: beta-Catenin FP IC50 (nM)
Compound,pIC50 [1],IC50 [2] [nM]
"CC(=O)N1CCC[C@]12CC=CCCCC1(CCCC=CCCCOC(=O)N3CC[C@@]4(C3)NC(=O)[C@H](CCCCNC(=O)CC[C@@H](C(=O)N[C@@H](C)C(=O)NC(CO)CO)NC(=O)[C@H](Cc3csc5ccccc35)NC(=O)[C@H](Cc3ccccc3C(F)(F)F)NC4=O)NC(=O)[C@H](Cc3ccccc3)NC(=O)[C@H](C)NC(=O)C(C)(C)NC(=O)[C@H](Cc3cccc(C(=O)O)c3)NC(=O)[C@H](CC(=O)O)NC1=O)NC(=O)[C@H](CC(C)(C)C)NC(=O)[C@H](CC(=O)O)NC2=O (relative stereo) [I-223, Ac-PL3-Asp-Npg-B5-Asp-3COOHF-Aib-Ala-Phe-Lys*3-PyrS2-2F3MeF-BztA-GlnR*3-Ala-Serol]",5.52 to 5.82,< 50
"CC(=O)N1CCC[C@]12CC=CCCCC1(CCCC=CCCCOC(=O)N3CC[C@@]4(C3)NC(=O)[C@H](CC(C)C)NC(=O)[C@H](Cc3ccccc3)NC(=O)[C@H](C)NC(=O)[C@H](CCC(=O)N3CCC5(CCN(CC5)C(=O)CC[C@@H](C(=O)N[C@@H](C)C(N)=O)NC(=O)[C@H](Cc5csc6ccccc56)NC(=O)[C@H](Cc5ccccc5C(F)(F)F)NC4=O)CC3)NC(=O)[C@H](Cc3cccc(C(=O)O)c3)NC(=O)[C@H](CC(=O)O)NC1=O)NC(=O)[C@H](CC(C)(C)C)NC(=O)[C@H](CC(=O)O)NC2=O (stereo partly drawn) [I-130, Ac-PL3-Asp-Npg-B5-Asp-3COOHF-GlnR-Ala-Phe-Leu-PyrS2-2F3MeF-BztA-[39N2spiroundecane]GlnR-Ala-NH2]",< 5.00,50 to 200
"CC(=O)N1CCC[C@]12CC=CCCCC1(CCCC=CCCCOC(=O)N3CC[C@@]4(C3)NC(=O)[C@H](CCCCNC(=O)CC[C@@H](C(=O)N[C@@H](C)CO)NC(=O)[C@H](Cc3csc5ccccc35)NC(=O)[C@H](Cc3ccsc3)NC4=O)NC(=O)[C@H](Cc3ccccc3)NC(=O)[C@H](C)NC(=O)[C@H](C)NC(=O)[C@H](Cc3cccc(C(=O)O)c3)NC(=O)[C@H](CC(=O)O)NC1=O)NC(=O)[C@H](CC(C)(C)C)NC(=O)[C@H](CC(=O)O)NC2=O (relative stereo) [I-65, Ac-PL3-Asp-Npg-B5-Asp-3COOHF-Ala-Ala-Phe-Lys*3-PyrS2-3Thi-BztA-GlnR*3-Alaol]",5.52 to 5.82,< 50
"CC(=O)N1CCC[C@]12CCCCCCC1(CCCCCCCCOC(=O)N3CC[C@@]4(C3)NC(=O)[C@H](CC(C)C)NC(=O)[C@H](Cc3ccccc3)NC(=O)[C@H](C)NC(=O)[C@H](CCC(=O)N3CCCC5(CCN(CC5)C(=O)CC[C@@H](C(=O)N[C@@H](C)C(N)=O)NC(=O)[C@H](Cc5csc6ccccc56)NC(=O)[C@H](Cc5ccccc5C(F)(F)F)NC4=O)C3)NC(=O)[C@H](Cc3cccc(C(=O)O)c3)NC(=O)[C@H](CC(=O)O)NC1=O)NC(=O)[C@H](CC(C)(C)C)NC(=O)[C@H](CC(=O)O)NC2=O (stereo partly drawn) [I-135, Ac-PL3-Asp-Npg-B5-Asp-3COOHF-[29N2spiroundecane]GlnR-Ala-Phe-Leu-PyrS2-2F3MeF-BztA-GlnR-Ala-NH2]",< 5.00,> 1000
"CC(=O)N1CCC[C@]12CC=CCCCC1(CCCC=CCCCOC(=O)N3CC[C@@]4(C3)NC(=O)[C@H](CC(C)C)NC(=O)[C@H](Cc3ccccc3)NC(=O)[C@H](C)NC(=O)[C@H](CCCCNC(=O)c3cccc(c3)C(=O)NCCCC[C@@H](C(N)=O)NC(=O)[C@H](Cc3csc5ccccc35)NC(=O)[C@H](Cc3ccsc3)NC4=O)NC(=O)[C@H](Cc3cccc(C(=O)O)c3)NC(=O)[C@H](CC(=O)O)NC1=O)NC(=O)[C@H](CC(C)(C)C)NC(=O)[C@H](CC(=O)O)NC2=O (stereo partly drawn) [I-45, Ac-PL3-Asp-Npg-B5-Asp-3COOHF-[isophthalate]-Lys-Ala-Phe-Leu-PyrS2-3Thi-BztA-Lys-NH2]",< 5.00,< 50
"CC(=O)N1CCC[C@]12CC=CCCCC1(CCCC=CCCCOC(=O)N3CC[C@@]4(C3)NC(=O)[C@H](CC(C)C)NC(=O)[C@H](Cc3ccccc3)NC(=O)[C@H](C)NC(=O)[C@H](CCCCNC(=O)c3cccc(c3)-c3cccc(c3)C(=O)NCCCC[C@@H](C(N)=O)NC(=O)[C@H](Cc3csc5ccccc35)NC(=O)[C@H](Cc3ccsc3)NC4=O)NC(=O)[C@H](Cc3cccc(C(=O)O)c3)NC(=O)[C@H](CC(=O)O)NC1=O)NC(=O)[C@H](CC(C)(C)C)NC(=O)[C@H](CC(=O)O)NC2=O (stereo partly drawn) [I-49, Ac-PL3-Asp-Npg-B5-Asp-3COOHF-[Biphen33COOH]-Lys-Ala-Phe-Leu-PyrS2-3Thi-BztA-Lys-NH2]",5.00 to 5.52,50 to 200
"CC(=O)N1CCC[C@]12CC=CCCCC1(CCCC=CCCCOC(=O)N3CC[C@@]4(C3)NC(=O)[C@H](CC(C)C)NC(=O)[C@H](Cc3ccccc3)NC(=O)[C@H](C)NC(=O)[C@H](CCCCNC(=O)c3ccccc3-c3ccccc3C(=O)NCCCC[C@@H](C(N)=O)NC(=O)[C@H](Cc3csc5ccccc35)NC(=O)[C@H](Cc3ccccc3Cl)NC4=O)NC(=O)[C@H](Cc3cccc(C(=O)O)c3)NC(=O)[C@H](CC(=O)O)NC1=O)NC(=O)[C@H](CC(C)(C)C)NC(=O)[C@H](CC(=O)O)NC2=O (stereo partly drawn) [I-53, Ac-PL3-Asp-Npg-B5-Asp-3COOHF-[diphenate]Lys-Ala-Phe-Leu-PyrS2-2ClF-BztA-Lys-NH2]",< 5.00,50 to 200

# The remaining lines, values ahead:
pIC50 [1],IC50 [2] [nM],Compound
5.00 to 5.52,< 50,"CCNC(=O)[C@H](CCCN1CCOCC1)NC(=O)[C@@H]1CCC(=O)NCCCC[C@@H]2NC(=O)[C@H](Cc3ccccc3)NC(=O)[C@H](C)NC(=O)C(C)(C)NC(=O)[C@H](Cc3cccc(C(=O)O)c3)NC(=O)[C@H](CC(=O)O)NC(=O)C3(CCCC=CCCCOC(=O)N4CC[C@@](C4)(NC2=O)C(=O)N[C@@H](Cc2ccccc2C(F)(F)F)C(=O)N[C@@H](Cc2csc4ccccc24)C(=O)N1)CCCC=CC[C@]1(CCCN1C(C)=O)C(=O)N[C@@H](CC(=O)O)C(=O)N[C@@H](CC(C)(C)C)C(=O)N3 (relative stereo) [I-228, Ac-PL3-Asp-Npg-B5-Asp-3COOHF-Aib-Ala-Phe-Lys*3-PyrS2-2F3MeF-BztA-GlnR*3-MorphNva-NHEt]"
5.00 to 5.52,< 50,"CC(=O)N1CCC[C@]12CC=CCCCC1(CCCC=CCCCOC(=O)N3CC[C@@]4(C3)NC(=O)[C@H](CSCc3cccc(c3)CSC[C@@H](C(=O)N[C@@H](C)C(N)=O)NC(=O)[C@H](Cc3csc5ccccc35)NC(=O)[C@H](Cc3ccccc3C(F)(F)F)NC4=O)NC(=O)[C@H](Cc3ccccc3)NC(=O)[C@H](C)NC(=O)C(C)(C)NC(=O)[C@H](Cc3cccc(C(=O)O)c3)NC(=O)[C@H](CC(=O)O)NC1=O)NC(=O)[C@H](CC(C)(C)C)NC(=O)[C@H](CC(=O)O)NC2=O (stereo partly drawn) [I-375, Ac-PL3-Asp-Npg-B5-Asp-3COOHF-Aib-Ala-Phe-[mXyl]Cys-PyrS2-2F3MeF-BztA-Cys-Ala-NH2]"
5.52 to 5.82,< 50,"CCNC(=O)[C@H](CO)NC(=O)[C@H](C)NC(=O)[C@@H]1CCC(=O)NCCCC[C@@H]2NC(=O)[C@H](Cc3ccccc3)NC(=O)[C@H](C)NC(=O)C(C)(C)NC(=O)[C@H](Cc3cccc(C(=O)O)c3)NC(=O)[C@H](CC(=O)O)NC(=O)C3(CCCC=CCCCOC(=O)N4CC[C@@](C4)(NC2=O)C(=O)N[C@@H](Cc2ccccc2C(F)(F)F)C(=O)N[C@@H](Cc2csc4ccccc24)C(=O)N1)CCCC=CC[C@]1(CCCN1C(C)=O)C(=O)N[C@@H](CC(=O)O)C(=O)N[C@@H](CC(C)(C)C)C(=O)N3 (relative stereo) [I-227, Ac-PL3-Asp-Npg-B5-Asp-3COOHF-Aib-Ala-Phe-Lys*3-PyrS2-2F3MeF-BztA-GlnR*3-Ala-Ser-NHEt]"
< 5.00,< 50,"CC(=O)N1CCC[C@]12CC=CCCCC1(CCCC=CCCCOC(=O)N3CC[C@@]4(C3)NC(=O)[C@H](CCCCNC(=O)CC[C@@H](C(=O)N[C@@H](CCCCNC(=O)CCOCCOCCOCCOCCOCCOCCOCCOCCNC(=O)CCCC[C@@H]3SC[C@@H]5NC(=O)N[C@@H]53)C(N)=O)NC(=O)[C@H](Cc3csc5ccccc35)NC(=O)[C@H](Cc3ccccc3C(F)(F)F)NC4=O)NC(=O)[C@H](Cc3ccccc3)NC(=O)[C@H](C)NC(=O)C(C)(C)NC(=O)[C@H](Cc3cccc(C(=O)O)c3)NC(=O)[C@H](CC(=O)O)NC1=O)NC(=O)[C@H](CC(C)(C)C)NC(=O)[C@H](CC(=O)O)NC2=O (relative stereo) [I-303, Ac-PL3-Asp-Npg-B5-Asp-3COOHF-Aib-Ala-Phe-Lys*3-PyrS2-2F3MeF-BztA-GlnR*3-[BiotinPEG8]Lys-NH2]"
5.00 to 5.52,< 50,"CC(=O)N1CCC[C@]12CC=CCCCC1(CCCC=CCCCOC(=O)N3CC[C@@]4(C3)NC(=O)[C@H](CCCCNC(=O)CC[C@@H](C(=O)N[C@@H](C)C(N)=O)NC(=O)[C@H](Cc3csc5ccccc35)NC(=O)[C@H](Cc3ccsc3)NC4=O)NC(=O)[C@H](Cc3ccccc3)NC(=O)[C@H](C)NC(=O)[C@H](CCC(=O)N3CCOCC3)NC(=O)[C@H](Cn3cc(CC(C)(C)C(=O)O)nn3)NC(=O)[C@H](CC(N)=O)NC1=O)NC(=O)[C@H](CC(C)(C)C)NC(=O)[C@H](CC(=O)O)NC2=O (relative stereo) [I-322, Ac-PL3-Asp-Npg-B5-Asn-[CH2CMe2CO2H]TriAzDap-MorphGln-Ala-Phe-Lys*3-PyrS2-3Thi-BztA-GlnR*3-Ala-NH2]"
5.00 to 5.52,50 to 200,"CC(=O)N1CCC[C@]12CC=CCCCC1(CCCC=CCCCOC(=O)N3CC[C@@]4(C3)NC(=O)[C@H](CSCc3ccc(cc3)CSC[C@@H](C(=O)N[C@@H](C)C(N)=O)NC(=O)[C@H](Cc3csc5ccccc35)NC(=O)[C@H](Cc3ccccc3C(F)(F)F)NC4=O)NC(=O)[C@H](Cc3ccccc3)NC(=O)[C@H](C)NC(=O)C(C)(C)NC(=O)[C@H](Cc3cccc(C(=O)O)c3)NC(=O)[C@H](CC(=O)O)NC1=O)NC(=O)[C@H](CC(C)(C)C)NC(=O)[C@H](CC(=O)O)NC2=O (stereo partly drawn) [I-377, Ac-PL3-Asp-Npg-B5-Asp-3COOHF-Aib-Ala-Phe-[pXyl]Cys-PyrS2-2F3MeF-BztA-Cys-Ala-NH2]"
